Earlier results in paper PMC6311893, “Computational prediction of plasma protein binding of cyclic peptides from small molecule experimental data using sparse modeling techniques” (BMC Bioinformatics, 2018).

Tested on: plasma protein
Details: cited from earlier work

Substance | PPB (fb) (plasma) | PPB (fb)
Buprenorphine | 0.96 | 
Warfarin | 0.99 | 
ascorbic acid | 0.15 | 
gemfibrozil | 0.97 | 
medroxyprogesterone |  | 0.9

Like-named read-outs stand apart in the source and are kept apart here.
